What was measured:
[1] = molecular target: T1, human adenosine A1 receptor (hA1R) (Homo sapiens, UniProt P30542); test: Competition association with [3H]-DPCPX, SPA technology; format: binding; settings: 1/k off, 28 °C, 1 mM GTP present for LUF5834, CCPA, NECA
T1 construct: Steve Hill (University of Nottingham, UK); host or cells: CHO cells stably expressing hA1R; membrane preparation
Experimental: (§1) The binding kinetics of unlabeled ligands was quantified using the competition association assay based on the theoretical framework by Motulsky and Mahan.
The membrane-bead mixture was prepared as described under “Radioligand displacement experiments.” Once the membrane-bead mixture was added to the wells of an Isoplate-96 Microplate, measurements of radioligand bound to the receptor were started immediately and continued every 30 s for 2 h, using the 2450 MicroBeta^2 Plate Counter.

The chains behind the UniProt entries cited, without tags or fusion partners.
UniProt P30542, whole entry: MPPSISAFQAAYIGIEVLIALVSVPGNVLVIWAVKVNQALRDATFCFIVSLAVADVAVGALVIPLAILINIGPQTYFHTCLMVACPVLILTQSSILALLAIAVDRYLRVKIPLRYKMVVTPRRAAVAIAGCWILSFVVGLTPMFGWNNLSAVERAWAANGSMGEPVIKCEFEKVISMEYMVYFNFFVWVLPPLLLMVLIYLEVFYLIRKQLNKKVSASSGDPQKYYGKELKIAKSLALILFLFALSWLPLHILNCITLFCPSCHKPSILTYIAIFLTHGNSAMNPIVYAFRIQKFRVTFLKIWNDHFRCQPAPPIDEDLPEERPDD

[2] = molecular target: T1, human adenosine A1 receptor (hA1R); test: Competition association with [3H]-DPCPX, filtration assay; format: binding; settings: 1/k off, 28 °C, 1 mM GTP present for LUF5834, CCPA, NECA
Experimental: as §1
The competition association assay was initiated by adding membrane aliquots (5 μg per well) at different time points for a total of 2 h in the absence or presence of competing ligand.

For CCNC(=O)[C@H]1O[C@@H](n2cnc3c(N)ncnc32)[C@H](O)[C@@H]1O [NECA, 5′-N-ethylcarboxamidoadenosine], the “SPA RT” value [1] was 1.9 ± 0.02 min and the “Filtration assay RT” value [2] was 1.7 ± 0.1 min.

Source: paper PMC4749533, “Scintillation proximity assay (SPA) as a new approach to determine a ligand’s kinetic profile. A case in point for the adenosine A1 receptor” (Purinergic Signalling, 2015)
